# Results taken from paper PMC3022805 (Journal of Biomedical Science, 2011).
# B1: apoE3-(72-166) (domain or fragment, human, UniProt P02649 90-184, looked up)
# chain: KAYKSELEEQLTPVAEETRARLSKELQAAQARLGADMEDVCGRLVQYRGEVQAMLGQSTEELRVRLASHLRKLRKRLLRDADDLQKRLAVYQAGA
# notes: 12 kDa; numbers count on: the mature protein of 299 amino acids; source: E. coli, purified
# Molecular target: T1, low-density lipoprotein receptor (LDLR) (human (endogenous in HepG2), UniProt P01130 22-860)
# T1 construct: low-density lipoprotein receptor on human hepatoblastoma cells (HepG2), used as the LDLR carriers; also called LDL receptor; source: endogenous, on HepG2 cells
# Assay: radioligand binding; HepG2 cells as LDLR carriers incubated in DMEM with 3H-LDL and apoE proteins in complex with DMPC as competitors, 4°C, 2 h; cell radioactivity counted
# Conditions: one partner purified
binder,measurement,value
B1,percent decrease of 3H-LDL binding,26%
